Measured affinities in a library of Ab-14 heavy chain variants

Data: MIT Lincoln Laboratory AlphaSeq set, Engelhart et al. 2022, doi:10.1038/s41597-022-01779-4, as distributed in FLAb.

All variants were tested on one target, the spike HR2 peptide PDVDLGDISGINAS (SARS-CoV-2).

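Library AAYL49 holds single substitutions and randomly drawn double and triple substitutions in the CDRs. The scFvs were displayed on barcoded MATa yeast, the peptide on MATalpha yeast. Pairs that bind mate more often; barcode pairs of the diploids are counted by sequencing. A regression on co-assayed BCL2-family reference pairs converts the normalised counts of each replicate to an apparent Kd. Mating was done three times.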

Parent scFv Ab-14: VH joined to VL by the linker GGGGSGGGGSGGGGS. Changes lie in the heavy chain CDRs alone.
VH: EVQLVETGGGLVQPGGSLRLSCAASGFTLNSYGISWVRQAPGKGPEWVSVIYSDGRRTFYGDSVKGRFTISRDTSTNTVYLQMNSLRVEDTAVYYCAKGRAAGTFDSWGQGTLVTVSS
VL: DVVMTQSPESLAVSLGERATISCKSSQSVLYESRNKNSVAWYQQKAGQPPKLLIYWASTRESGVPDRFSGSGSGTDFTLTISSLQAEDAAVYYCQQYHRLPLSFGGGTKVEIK

Each variant is given by its three heavy chain CDRs, as the data file delimits them; those of the parent are GFTLNSYGIS, VIYSDGRRTFYGDSVK, GRAAGTFDS. This list gathers variants with a substitution at V64 (VH, numbered from residue 1). The Kd shown is the geometric mean over detected replicates; a lower Kd is a better binder. "nd" means that the variant was in the library but no mating with the target was seen in any replicate; the authors take this as a sign of poor binding, and no number exists.

* GFTLNSYGIS, VIYSDGRRIFYGDSEK, GRAAGTADS: nd (0 of 3 replicates)
* GFPLNSYGIS, VIYSDGRATFYGDSEK, GRAAGTFDS: nd (0 of 3 replicates)
* GFTLNSYGKS, VIKSDGRRTFYGDSPK, GRAAGTFDS: nd (0 of 3 replicates)
* GFTLNPYGIS, VIYSDGRRTFYGDSKK, GRRAGTFDS: nd (0 of 3 replicates)
* GFTLNSYGIS, VIYSDGRRTHYGDSHK, GRAPGTFDS: nd (0 of 3 replicates)
* MFTLNSYGIS, VIYSDGRRTFYGDSLK, GRAAGTFDS: nd (0 of 3 replicates)
* GFTLNSYGIS, VIISDGRRTFYGDSAK, GRAAGTFDG: nd (0 of 3 replicates)
* GFQLNSYGII, VIYSDGRRTFYGDSLK, GRAAGTFDS: 4.9 µM (1 of 3 replicates)
* GFTLGSYGTS, VIYSDGRRTFYGDSEK, GRAAGTFDS: 44 µM (1 of 3 replicates)
* GFTLNSYGIS, VIYSDGRRTFAGDSLK, GRAAGTEDS: nd (0 of 3 replicates)
* GFTLNSYGIM, VIYSDNRRTFYGDSWK, GRAAGTFDS: nd (0 of 3 replicates)
* GFTLNSYGIW, VIYSDGRRTFYGDSLK, GRAAGPFDS: nd (0 of 3 replicates)
* GFTLNSYGIS, VIYSDGRRAHYGDSDK, GRAAGTFDS: nd (0 of 3 replicates)
* GFTLNSYGIS, VIYSDGRRTFYGDWGK, GRAAGTFFS: nd (0 of 3 replicates)
* GFTLNSYGIS, VIYSDGRRTFYGDSAK, GRAAPTFDS: 48 nM (3 of 3 replicates)
* HFTLNSYGIS, VIYSDGRRTYYGDSNK, GRAAGTFDS: nd (0 of 3 replicates)
* GFTLNSYGIS, VIYSDGRRTFAGDSLK, GRAAGTSDS: nd (0 of 3 replicates)
* GFTLNSYGIS, VIYSDGRRTFYGDSGK, GKAAGTFDS: 250 nM (3 of 3 replicates)
* GFTLNSYGIS, VIYSDGMRTFYGDSKK, GRAAGTFDS: nd (0 of 3 replicates)
* GFHLQSYGIS, VIYSDGRRTFYGDSHK, GRAAGTFDS: nd (0 of 3 replicates)
* GFTLNSYWIS, VIYYDGRRTFYGDSMK, GRAAGTFDS: nd (0 of 3 replicates)
* GFTLNSMGIS, WIYSDGRRTFYGDSNK, GRAAGTFDS: 1.3 mM (1 of 3 replicates)
* GFTLNSYGIS, VIYGDGRRIFYGDSIK, GRAAGTFDS: 270 nM (1 of 3 replicates)
* YFTLNSYGIS, VIYSDGRRTFSGDSWK, GRAAGTFDS: 100 µM (2 of 3 replicates)
* GFTLNMYGIS, VDYSDGRRTFYGDSQK, GRAAGTFDS: 1.9 µM (1 of 3 replicates)
* GFTLNSYGIS, VIYSDGRRTFYGDSLK, GRAAGTFDS: nd (0 of 3 replicates)
* GFHLNSYGIS, YIYSDGRRTFYGDSGK, GRAAGTFDS: 260 µM (1 of 3 replicates)
* GFTLNSYGIS, VIRSDGRRTFYGDYCK, GRAAGTFDS: nd (0 of 3 replicates)
* GFTLNSYGIS, VSYSDGRRTFYGDSNK, GRASGTFDS: 20 µM (3 of 3 replicates)
* GFTLNSYGIS, VIYSDGRRTFYGDYLK, GRAAGTFKS: nd (0 of 3 replicates)
* GFFGNSYGIS, VIYSDGRRTFYGDSGK, GRAAGTFDS: 750 µM (1 of 3 replicates)
* GFTLNSCGIS, VIYSDGRRTFYGDSRK, GEAAGTFDS: nd (0 of 3 replicates)
* GFTLNSYGIS, VIYSDGRRTFYGDSSK, GIAAGTFDE: 980 nM (1 of 3 replicates)

Three control strains display no target. For library AAYL49, 15% of the pairings with them gave a signal, with a median of 11 µM and one signal in twenty below 680 nM, so weak values seen in few replicates may be background. Parent in this assay: reference entry 4.4 nM, copy in this library 13 µM (one replicate of three).